Values of other authors, collected in patent US7879861B2, “Combi-molecules having EGFR and DNA targeting properties” (priority 2005, dated 2011).

Test system: metastatic breast cancer
Details: single agent; cited from earlier work

Substance: Herceptin: a humanized antibody against erbB2
- response rate: 22%
